What was measured:
[1] = Stability in mouse plasma assessed as remaining compound measured after 7 hrs; assay type: ADME, cell-free; details: read-out: Stability
[2] = Clearance in mouse hepatocytes; assay type: ADME, cell-based, Hepatocyte
[3] = Stability in mouse plasma assessed as remaining compound measured after 4 hrs; assay type: ADME, cell-free; details: read-out: Stability
[4] = Clearance in mouse liver microsomes; assay type: ADME, Microsome; details: read-out: CLH

| SMILES | remaining at 7 h [1] [%] | CLH [2] [µL/min/mg] | remaining at 4 h [3] [%] | microsomal CLint [4] [µL/min/mg] |
| --- | --- | --- | --- | --- |
| COc1ccc(NC(=O)C2CCN(c3ncccc3C)C(C)C2)cc1Cl (centres undefined) | 15 |  |  |  |
| COc1ccc(NC(=O)[C@@H]2CCN(c3ncccc3Br)[C@H](C)C2)cc1Cl |  | 31 | 40 | 262 |
